Data taken from patent US20030203082A1, “Inhibition of non-enzymatic browning” (Givaudan SA, priority 2002, published 2003).

Conditions: after 120 minutes at 85° C.; inhibitor 7 mM (resin-bound: theoretical 7 mM)

SCCCS [free inhibitor, 1,3-propane dithiol]
browning of the juice (absorbance at 420 nm; control after 175 minutes considered as 100% browning): 10%
